Data on one substance can be found in US20090264384A1, “INDOLE, BENZIMIDAZOLE, AND BENZOLACTAM BORONIC ACID COMPOUNDS, ANALOGS THEREOF AND METHODS OF USE THEREOF” (Nuada, Inc., priority 2004, published 2009).

This experiment deals with T1, ETB(h) (Homo sapiens, UniProt P24530).
T1 construct: expressed in transfected cells; host or cells: CHO cells
T1 sequence (P24530 27-442): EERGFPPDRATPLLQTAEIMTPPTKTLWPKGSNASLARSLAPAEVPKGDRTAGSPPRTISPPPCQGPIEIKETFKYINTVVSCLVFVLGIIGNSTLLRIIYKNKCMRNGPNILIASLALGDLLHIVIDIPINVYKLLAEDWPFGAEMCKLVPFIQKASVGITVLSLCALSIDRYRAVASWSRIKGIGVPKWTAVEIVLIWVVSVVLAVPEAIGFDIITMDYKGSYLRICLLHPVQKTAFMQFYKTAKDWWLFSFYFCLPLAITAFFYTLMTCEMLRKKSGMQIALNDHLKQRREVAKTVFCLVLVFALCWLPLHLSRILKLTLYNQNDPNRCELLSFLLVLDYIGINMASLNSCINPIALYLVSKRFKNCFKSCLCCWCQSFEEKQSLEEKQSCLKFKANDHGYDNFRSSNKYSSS
Put plainly: ETB(h) binding assay.

Turning to endothelin-3, the IC50 turned out to be 230 pM and the inhibition constant (Ki) was found to be 200 pM.
